Only a part is listed here, and it is no random draw. The source made the active and inactive calls.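 How the source made its calls: active means inhibition above about 55% (limit read from the data); inactive means the rest.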

A short description of this test: blockers of Gli reporter signaling – luciferase luminescence, Sufu-KO-LIGHT cells, uHTS, primary screen (AID 588413).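 Further: 0% = DMSO-treated cells and 100% = wells with medium but no cells.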 The settings on record: Sufu-KO-LIGHT fibroblasts, at 5 µM, hits give high values.
Usually inhibition stands for the drop in the measured response relative to a control, in per cent. As to `CCC(=O)N(c1ccccc1)C1(COC)CCN(CCc2cccs2)CC1`, the inhibition was inactive: 27.9%. With `CCC(=O)N(c1ccccc1)C1(COC)CCN(CCn2nnn(CC)c2=O)CC1`, the inhibition is inactive: -1.08%.

(Values after PubChem BioAssay AID588413 (Sanford-Burnham Center for Chemical Genomics, 2011).)
